Tested on: patient who had loss of taste and smell from COVID-19
[1] = 3 months, 80 μg theophylline once per day, standard nasal spray device, pre treatment 10
[2] = 3 months, 80 μg theophylline once per day, standard nasal spray device, pre treatment 11
[3] = 3 months, 80 μg theophylline once per day, standard nasal spray device, pre treatment 12

## Cn1c(=O)c2[nH]cnc2n(C)c1=O [Theophylline, theophylline]
3 months vs baseline
  fold lower concentration of AA the patient could detect: 10^8
  improvement of recognition threshold (RT) of AA: 8 bottle units
3 months vs before treatment
  detection threshold and recognition threshold in all four odorant tests: improved
[1]
  DT Thio: 4 BU
  RT Thio: 4 BU
[2]
  DT AA: 4 BU
  DT NO2B: 9 BU
  DT Pyr: 7 BU
  RT Pyr: 7 BU
[3]
  RT AA: 4 BU
  RT NO2B: 9 BU
